## Binding of CDR-mutated scFvs to a peptide of the spike HR2 region

Values reported by Li et al. 2023, doi:10.1038/s41467-023-39022-2 (FLAb copy).

Target: peptide PDVDLGDISGINAS, taken from heptad repeat 2 (HR2) of SARS-CoV-2 spike.

Parent scFv Ab-14: VH joined to VL by three GGGGS repeats. Changes lie in the light chain CDRs alone.
VH: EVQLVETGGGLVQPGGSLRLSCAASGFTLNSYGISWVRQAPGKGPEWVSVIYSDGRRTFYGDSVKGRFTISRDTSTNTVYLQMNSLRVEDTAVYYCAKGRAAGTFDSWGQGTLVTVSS
VL: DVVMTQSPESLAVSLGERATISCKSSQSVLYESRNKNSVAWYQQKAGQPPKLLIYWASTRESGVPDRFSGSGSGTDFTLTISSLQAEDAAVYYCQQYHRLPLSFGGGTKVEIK

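The parent was found by panning a naive human phage display library on the peptide. These sequences belong to a second round, designed from the earlier measurements on random variants of the parent. Several design methods are mixed in this list. Affinity was read by AlphaSeq, a pooled yeast mating assay with surface-displayed partners. The frequency of each diploid, read from paired DNA barcodes, reflects how well the two displayed proteins bind. Scores were corrected for input abundance and mapped to Kd with protein pairs of known affinity run in the same pool. Mating was done six times.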

Positions count from residue 1 of the parent VL; W56G puts G in place of W. This list holds designs with at most six substitutions. Values are log10 of the apparent Kd in nM; lower means stronger binding. Replicates are averaged; those with no signal do not enter the mean. An entry "nd" has no value in the source: the pair was not observed among the diploids in any replicate. This suggests poor binding but is not conclusive. The authors averaged sequences with at least three values out of six and counted those with two or fewer as poor binders. Three control strains display no target. For all light chain designs, 4% of the pairings with them gave a signal, with a median of 2.64 and one signal in twenty below 1.59, so weak values seen in few replicates may be background. Of ten entries with the parent sequence, four were seen in most replicates (averages 0.34 to 2.37), three in one and three in none, so single entries are noisy. The range of this assay differs from that of the first round, and the authors advise against merging the two.

For W56G/P101T, the assay gave nd (0 of 6 replicates). Variant Q27W/R34E/W56H/S62D gave 0.61 (6 of 6 replicates). Variant S38E/W56Q showed 2.44 (5 of 6 replicates). Variant S26T/R34Q/Y97M gave nd (0 of 6 replicates). Variant Y31I/E61N gave 1.02 (6 of 6 replicates). Variant S25F/Y31F/S33P/W56D gave -0.60 (6 of 6 replicates).

With S26L/V29W/W56H/S62D/R99Q the result was -0.20 (6 of 6 replicates). Variant S25V/V29Q/S33D/W56N/T59Q showed 0.12 (6 of 6 replicates). With S25L/S26Q/V29E/W56S the result was 0.84 (6 of 6 replicates). For S25L/S26E/V29Q/L30E/W56N, the assay gave -0.47 (6 of 6 replicates). Variant R34H/N35D gave 2.82 (4 of 6 replicates). Variant S25L/L30M/W56N/S62E showed -0.44 (6 of 6 replicates).

With S25M/Y31M/S33H/W56D/T59Q the result was -0.22 (6 of 6 replicates). For S25G/Q27P/V29D/Y31A, the assay gave 1.57 (6 of 6 replicates). With S25L/K36V/W56N the result was -0.19 (6 of 6 replicates). For S25L/S26Y/V29Q/W56N/T59Y, the assay gave 0.07 (6 of 6 replicates). With W56G/Y97K the result was -0.25 (6 of 6 replicates). Variant V29D/Y31Q/K36Q/W56E/S62A gave 0.04 (6 of 6 replicates).

For S38D/W56D, the assay gave 0.19 (6 of 6 replicates). For S25L/S26D/Y31R/T59W/Y97A, the assay gave 2.43 (4 of 6 replicates). For S25L/S26D/V29C/L30Q/W56N, the assay gave -0.31 (6 of 6 replicates). With S25L/S26R/Q27M/V29T/W56T the result was 0.21 (6 of 6 replicates). For S26V/E32D/R34D/S38D/W56G/A57G, the assay gave 0.86 (6 of 6 replicates). With S25L/N35T/K36Y/W56N the result was -0.32 (6 of 6 replicates).

Variant S25C/S28E/S33A/R34A/K36H/S62Q showed 1.04 (5 of 6 replicates). For S25H/Y31R/S33D/N35V/W56D/T59Q, the assay gave 0.47 (6 of 6 replicates). For Q27L/S28E/V29F/N37R, the assay gave nd (0 of 6 replicates). Variant S25V/S38N/W56H gave 0.35 (6 of 6 replicates). Variant K24D/E32Y/H98S showed nd (0 of 6 replicates). For S28P/V29R/W56M/H98A, the assay gave 0.58 (6 of 6 replicates).

For S33W/R34N/K36P, the assay gave 1.89 (1 of 6 replicates). Variant S25V/V29E/Y31M/W56E gave -0.14 (6 of 6 replicates). With K24N/V29W/W56N/A57G/S58N the result was -0.46 (6 of 6 replicates). Variant S25L/S38N/W56D/S62Q gave 0.24 (6 of 6 replicates). Variant R34T/K36S/W56Q/H98W gave 0.31 (6 of 6 replicates). Variant S25F/N35T/K36S/S38P/W56N showed 0.28 (6 of 6 replicates).

Variant S25I/S28L/S33D/W56N/S58N showed -0.28 (6 of 6 replicates). For K36P/S62L, the assay gave 1.97 (4 of 6 replicates). For K24D/S25W/R34H, the assay gave 1.77 (4 of 6 replicates). Variant S25L/S26C/W56H/S62D/S103M showed 0.22 (6 of 6 replicates). Variant S25F/S33D/W56N/T59Q/E61M gave -0.44 (6 of 6 replicates). Variant Q27I/V29M/S33E/K36D/W56N/T59Q gave 0.20 (6 of 6 replicates).

Variant R34D/K36V/E61F gave 1.73 (6 of 6 replicates). Variant L30M/N35D gave nd (0 of 6 replicates). With S26L/W56H/S62D/L100T the result was 2.93 (1 of 6 replicates). For R34D/L100I, the assay gave 2.01 (1 of 6 replicates).

A selection of 3 entries from above:

With S25C/S28E/S33A/R34A/K36H/S62Q the result was 1.04 (5 of 6 replicates).
With S25L/N35T/K36Y/W56N the result was -0.32 (6 of 6 replicates).
With S25L/S26C/W56H/S62D/S103M the result was 0.22 (6 of 6 replicates).